Source: ChEMBL document CHEMBL4842383 (J Med Chem, 2021)

Key:
Homo sapiens [1] = organism: Homo sapiens; test: Selectivity ratio for IC50 for human wild-type human full length PAK3 (M1 to R544 residues) to IC50 wild-type human partial length CSF1R (I564 to S939 residues)
Homo sapiens [2] = organism: Homo sapiens; test: Selectivity ratio for IC50 for human wild-type human partial length DDR1 (R565 to V876 residues) to IC50 wild-type human partial length CSF1R (I564 to S939 residues)
Homo sapiens [3] = organism: Homo sapiens; test: Selectivity ratio for IC50 for human wild-type human partial length FLT3 (V592 to Y969 residues) to IC50 wild-type human partial length CSF1R (I564 to S939 residues)
Homo sapiens [4] = organism: Homo sapiens; test: Selectivity ratio for IC50 for human wild-type human partial length PDGFRalpha (V575 to D1002 residues) to IC50 wild-type human partial length CSF1R (I564 to S939 residues)
Homo sapiens [5] = organism: Homo sapiens; test: Selectivity ratio for IC50 for human wild-type human partial length PDGFRbeta (V582 to Y1009 residues) to IC50 wild-type human partial length CSF1R (I564 to S939 residues)
Homo sapiens [6] = organism: Homo sapiens; test: Selectivity ratio for IC50 for human wild-type human partial length VEGFR2 (R787 to P1253 residues) to IC50 wild-type human partial length CSF1R (I564 to S939 residues)
Homo sapiens [7] = organism: Homo sapiens; test: Selectivity ratio for IC50 for human wild-type human partial length AURKB (D25 to A303 residues) to IC50 wild-type human partial length CSF1R (I564 to S939 residues)
Homo sapiens [8] = organism: Homo sapiens; test: Selectivity ratio for IC50 for human c-Kit to IC50 wild-type human partial length CSF1R (I564 to S939 residues)

## CN(C)c1ccc2c(Oc3ccc(NC(=O)NCc4ccc(C(F)(F)F)nc4)cc3)ncnc2c1
Homo sapiens [1]
  Selectivity ratio: > 15000
Homo sapiens [2]
  Selectivity ratio: 113
Homo sapiens [3]
  Selectivity ratio: 121
Homo sapiens [4]
  Selectivity ratio: 48
Homo sapiens [5]
  Selectivity ratio: 59
Homo sapiens [6]
  Selectivity ratio: > 15000
Homo sapiens [7]
  Selectivity ratio: 426
Homo sapiens [8]
  Selectivity ratio: 2.1
